The values below come from PMC4595804, “A strategy to discover decoy chemokine ligands with an anti-inflammatory activity” (Scientific Reports, 2015).

Experiment [1] addresses T1, CCL17 (Homo sapiens, UniProt Q92583).
T1 construct: codes for the mature CCL17 or CCL22 with an N-terminal thioredoxin-hexahistidin (TRX- (His)6) tag; thioredoxin (TRX) (N, cleaved yes); (His)6 (N, cleaved yes); made in house; host or cells: E. coli BL21 (DE3)
T1 sequence (Q92583 24-94): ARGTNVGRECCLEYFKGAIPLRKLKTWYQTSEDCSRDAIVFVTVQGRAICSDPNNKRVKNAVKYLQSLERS
Nature of the experiment: CCL17-induced CCR4+ HUT78 T cell chemotaxis (Transwell), neutraligand protocol. The format is cell-based. The following applies: 3 nM CCL17 preincubated 1 h with compound; read-out: IC50, inhibition of CCL17-induced HUT78 chemotactic response. As for the experimental part: (§1) Figure 6 (a) Selectivity of CCL17 and CCL22 neutraligands towards 10 chemokines according to the “neutraligand protocol”. Inhibition by DMSO (black bars), GPN279 (grey bars) and GPN136 (white bars) (10 μM) of calcium responses triggered by either 5 nM CCL2 on EGFP-CCR2^+ HEK cells, by 5 nM CCL3, CCL4 and CCL5 on EGFP-CCR5^+ HEK cells, by 5 nM CCL17 and CCL22 on EGFP-CCR4^+ HEK cells, by 5 nM CXCL8 on EGFP-CXCR2^+ HEK cells, by 5 nM CXCL10 and CXCL11 on EGFP-CXCR3^+ HEK cells, or by 5 nM CXCL12 on EGFP-CXCR4^+ HEK cells. Each column represents the mean (block) ± SD (bars) of n = 3 experiments performed in triplicate. *p < 0.05; **p < 0.01; ***p < 0.005 as compared to chemokine + DMSO. (b) Chemokine neutraligands inhibited CCR4 endocytosis induced by CCL22 or CCL17. […] Cell surface EGFP-tagged CCR4 receptors were measured by EGFP antibody labeling and flow cytometry analysis. CCR4 internalization was expressed as a percentage of total receptor surface expression calculated using control cells incubated with DMSO (100%). […] The number of migrating cells in the presence of chemokine and compounds were expressed as the corresponding percentages. Results were analyzed by fitting the experimental curves (% of migrating cells vs log compound concentration) using the Kaleidagraph software program, and the corresponding IC50 values were calculated. […]

Experiment [2] deals with T1, CCL17. Nature of the experiment: CCL17-mediated EGFP-CCR4 receptor internalization (flow cytometry). The format is cell-based. The conditions noted are these: 100 nM CCL17, 30 min, 0.03–3 μM compound; read-out: half-maximal efficiency, inhibition of CCL17-mediated CCR4 internalization. As for the experimental part: as §1
(In flow cytometry, cells or beads pass a laser one at a time.)

Experiment [3] concerns the target T1, CCL17. Nature of the experiment: Tryptophan fluorescence assay on CCL17. The conditions noted are these: 1.5 μM CCL17, tryptophan fluorescence at 340 nm. The format is binding. As for the experimental part: Fluorescence measurements were performed on a spectrofluorometer (JobinYvon/Spex) in a quartz microcuvette at 20 °C. CCL17 and CCL22 (1.5 μM in HEPES buffer without BSA) were excited at 285 nm and emission spectra were recorded (300–400 nm). Initial fluorescence intensities (F0) of CCL17 or CCL22 alone were acquired at 340 nm, followed by subsequent readings (relative fluorescence, F) after sequential addition of 1μl of compounds (GPN279 or GPN136 or C-021 in DMSO) or DMSO alone. The fluorescence emission spectra were corrected by subtracting the emission scan of the compounds alone and data analysis was carried out with fluorescence intensities detected at 340 nm.

In experiment [4] the target is T1, CCL17. Nature of the experiment: TRIC-r calcium assay, neutraligand protocol: compound preincubated with CCL17, EGFP-CCR4+Gqi5+ HEK cells. The format is cell-based. The following applies: 5 nM CCL17 preincubated 1 h with compound, 21 °C; read-out: IC50 for CCL17 neutralization (calcium assay). As for the experimental part:
(§2) EGFP-CCR4^+Gqi5^+HEKcells were loaded with fluorescent Ca^2+-indicator Indo-1 AM (5μM, Interchim) for 45 min at 37 °C. […] Cells (100,000 cells/well, 100μl) were seeded in black clear bottom 96-well plates (Greiner), and centrifuged at 250 × g for 5 min.
(§3) Two plates (96-well plates, Greiner) were prepared for the screen: one containing test compounds alone in order to determine their direct agonistic activity, and another one containing test compounds mixed with CCL17 or CCL22 at room temperature for 1 h (neutraligand protocol). The chemokines and test compounds were prepared at a 3× concentration, while digitonin was prepared at a 4× concentration. […]
(§4) Dye loaded cells were placed in the FlexStation 3 (Molecular Devices). […] The calcium response values (height of peak response over baseline) were determined. […] The Z’ factor[29] was calculated according to the following equation: Z’ = 1-(3SD+ + 3SD−)/|Ave+ − Ave−|, where SD+ and Ave+ are respectively the standard deviation and the mean value of the positive controls (chemokine + DMSO), while SD− and Ave− are respectively the standard deviation and the mean value of the negative controls (HEPES-BSA (0.1%) mixed with DMSO, or cells mixed with C-021). Hit molecules were confirmed by performing concentration-response curves and their half maximal inhibitory concentration (IC50) values were calculated using the Kaleidagraph software.

A further experiment deals with T2, CCL22 (Homo sapiens, UniProt O00626).
T2 construct: codes for the mature CCL17 or CCL22 with an N-terminal thioredoxin-hexahistidin (TRX- (His)6) tag; thioredoxin (TRX) (N, cleaved yes); (His)6 (N, cleaved yes); made in house; host or cells: E. coli BL21 (DE3)
T2 sequence (O00626 25-93): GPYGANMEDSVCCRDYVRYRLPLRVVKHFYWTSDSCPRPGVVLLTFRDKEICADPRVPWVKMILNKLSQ
The experiment in a line: TRIC-r calcium assay, neutraligand protocol: compound preincubated with CCL22, EGFP-CCR4+Gqi5+ HEK cells. It is filed as cell-based. The conditions noted are these: 10 μM compound, 5 nM CCL22, EGFP-CCR4+ HEK cells. As for the experimental part: as §2, §3, §4

Where two headings read alike, the source gives them in different places.

On to `CC(C)=CCn1cnc2c1c(=O)n(C)c(=O)n2C` [GPN279, 1,3-dimethyl-7-(3-methylbut-2-enyl)-1H-purine-2,6(3H, 7H)-dione], for which the IC50 is 0.15 ± 0.01 nM on CCL17 [1], roughly 200 nM on CCL17 [2] and 7100 ± 1700 nM on CCL17 [4]. Further, the dissociation constant (Kd) is less than 50 nM on CCL17 [3] (estimated, read-out: KD, high-affinity binding site class, on CCL17) and 57000 nM at CCL17 [3] (read-out: KD, low-affinity binding site class, on CCL17). For the same compound, the “inhibition of CCL22-evoked calcium responses (selectivity)” value on CCL22 is “no effect”.

What is called Kd is the equilibrium constant for the complex coming apart.
